Reference: patent US6566088B1, “Prolyl-4-hydroxylases” (Board of Regents, The University of Texas System, priority 2001, dated 2003)

The chains behind the UniProt entries cited, without tags or fusion partners. Where a name states a change or a piece, a line headed by the entry shows the natural chain unless it says otherwise.
UniProt Q9GZT9: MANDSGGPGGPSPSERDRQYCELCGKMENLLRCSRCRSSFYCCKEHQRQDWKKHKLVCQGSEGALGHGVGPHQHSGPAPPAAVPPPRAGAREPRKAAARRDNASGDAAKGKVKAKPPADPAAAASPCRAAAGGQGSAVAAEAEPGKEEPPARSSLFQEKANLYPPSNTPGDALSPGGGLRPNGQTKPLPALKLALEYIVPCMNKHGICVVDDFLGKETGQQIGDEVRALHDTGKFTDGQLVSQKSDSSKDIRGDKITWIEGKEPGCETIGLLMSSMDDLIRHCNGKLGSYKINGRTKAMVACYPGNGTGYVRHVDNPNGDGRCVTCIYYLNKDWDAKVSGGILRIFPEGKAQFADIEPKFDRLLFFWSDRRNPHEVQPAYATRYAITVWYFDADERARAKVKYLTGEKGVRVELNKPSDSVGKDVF

Molecular target: HPH 2 (Homo sapiens, UniProt Q9GZT9, DEL76-177)
Assay: Activity of purified recombinant HPH 2 on HIF-1a peptide substrate
Format: biochemical
Settings: additive added (CoCl2 in excess)

## CoCl2
  effect on activity of the HPH 2 enzyme: inhibited
